{"source": "patent US5534497A", "about": "“Technetium chelates to be used for determining the renal function” (Mallinckrodt Medical, Inc., priority 1986, dated 1996)", "assay": "Biodistribution in mice by organ uptake measurements, relative to Tc99m-MAG3 (iodo-131-Hippuran as reference standard)", "format": "in vivo", "details": "for Blood: ratio of uptake of compound to uptake of Tc99m-MAG3 / Hepatic (system): ratio of uptake of compound to uptake of Tc99m-MAG3 / Intestines: ratio of uptake of compound to uptake of Tc99m-MAG3 / Kidneys: ratio of uptake of compound to uptake of Tc99m-MAG3 / Liver: ratio of uptake of compound to uptake of Tc99m-MAG3 / Remainder / Rest of the body: ratio of uptake of compound to uptake of Tc99m-MAG3 / Renal (system): ratio of uptake of compound to uptake of Tc99m-MAG3 / Stomach: ratio of uptake of compound to uptake of Tc99m-MAG3 / Urine: ratio of uptake of compound to uptake of Tc99m-MAG3: intravenous, 10 minutes after administration, each normalised to iodo-131-Hippuran; for Secretion characteristics / organ distribution compared with Tc99m-MAG3 (in words): secretion in urine, retention in kidneys, liver, intestines", "method": "Tc99m-MAGAG-DA, separated by HPLC, is diluted with physiological saline solution to a concentration of 370 kilobecquerel per mi. Iodo-131-Hippuran is added to this solution as a reference standard. An amount of 0.1 ml of this mixture is injected intravenously into each of the eight mice, so that 37 kilobecquerel of Tc99m-MAGAG-DA and 18.5 kilobecquerel of iodo-131-Hippuran are injected per animal. Measures are taken to collect all the excreted urine. 10 Minutes after the administration the mice are sacrificed. It is ensured that all the blood is collected. All parts of the body are brought in separate tubes and the activity of Tc99m and I131 is determined for each part of the body. From the measured results the relative quantity of both tracer products in urine, kidneys, intestines. liver, blood and the collective remainder of the body is computed. In the same manner, Tc99m-MAGA-DB, separated by HPLC, and Tc99m-mercaptoacetylglycylglycylglycine (Tc99m-MAG3), purified by HPLC, both with iodo-131-Hippuran as a reference standard, are tested in two other groups of 8 and 6 mice, respectively. For all three Tc99m-labelled compounds -- MAGAG-DA, MAGAG-DB and MAG3 -- the relative percentages of Tc99m activity in the various organs are calculated with respect to iodo-131-Hippuran. After this, the ratios of Tc99m-MAGAG-DA and -DB can be calculated with respect to Tc99m-MAG3 in the various organs.\nIn the same ray as described in Example III the biodistribution of the above compound in mice is determined relative to that of Tc99m-MAG3 by organ uptake measurements.\nIn the same way as described in Example III the biodistribution of the above compound in mice is determined relative to that of Tc99m-MAG3 by organ uptake measurements."}
{"substance": "Tc99m-mercaptoacetylglycyl-D-serylglycine [Tc99m-MAGSERG-DA]", "values": [{"measurement": "Blood: ratio of uptake of compound to uptake of Tc99m-MAG3", "value": 0.98}, {"measurement": "Hepatic (system): ratio of uptake of compound to uptake of Tc99m-MAG3", "value": 0.43}, {"measurement": "Intestines: ratio of uptake of compound to uptake of Tc99m-MAG3", "value": 0.48}, {"measurement": "Kidneys: ratio of uptake of compound to uptake of Tc99m-MAG3", "value": 0.44}, {"measurement": "Liver: ratio of uptake of compound to uptake of Tc99m-MAG3", "value": 0.39}, {"measurement": "Remainder / Rest of the body: ratio of uptake of compound to uptake of Tc99m-MAG3", "value": 1.38}, {"measurement": "Renal (system): ratio of uptake of compound to uptake of Tc99m-MAG3", "value": 1.03}, {"measurement": "Stomach: ratio of uptake of compound to uptake of Tc99m-MAG3", "value": 0.70}, {"measurement": "Urine: ratio of uptake of compound to uptake of Tc99m-MAG3", "value": 1.13}, {"measurement": "Secretion characteristics / organ distribution compared with Tc99m-MAG3 (in words)", "value": "significantly better than those of Tc99m-MAG3"}]}
{"substance": "Tc99m-mercaptoacetylglycyl-D-serylglycine [Tc99m-MAGSERG-DB]", "values": [{"measurement": "Blood: ratio of uptake of compound to uptake of Tc99m-MAG3", "value": 0.94}, {"measurement": "Hepatic (system): ratio of uptake of compound to uptake of Tc99m-MAG3", "value": 0.67}, {"measurement": "Intestines: ratio of uptake of compound to uptake of Tc99m-MAG3", "value": 0.47}, {"measurement": "Kidneys: ratio of uptake of compound to uptake of Tc99m-MAG3", "value": 0.42}, {"measurement": "Liver: ratio of uptake of compound to uptake of Tc99m-MAG3", "value": 0.72}, {"measurement": "Remainder / Rest of the body: ratio of uptake of compound to uptake of Tc99m-MAG3", "value": 1.23}, {"measurement": "Renal (system): ratio of uptake of compound to uptake of Tc99m-MAG3", "value": 1.01}, {"measurement": "Stomach: ratio of uptake of compound to uptake of Tc99m-MAG3", "value": 0.66}, {"measurement": "Urine: ratio of uptake of compound to uptake of Tc99m-MAG3", "value": 1.10}, {"measurement": "Secretion characteristics / organ distribution compared with Tc99m-MAG3 (in words)", "value": "significantly better than those of Tc99m-MAG3"}]}
